Laboratory results taken from patent US20250154195A1, “NOVEL BETULIN DERIVATIVES, AND THEIR MANUFACTURING METHOD AND USE AS SURFACTANT” (priority 2022, published 2025).

Experiment: Critical micelle concentration (CMC) in water by the stalagmometric method (surface tension vs. concentration)
Format: physicochemical
Description: (§1) CMC of mono and di-hydrophilic moiety derivatized betulin derivatives were determined according to the stalagmometric method, which is one of the most common methods for measuring surface tension. Samples were prepared at different concentration of mono and di-hydrophilic moiety derivatized betulin derivatives. The surface tension of samples was calculated from the number of drops obtained by stalagmometer. CMC was calculated by plotting surface tensions vs. concentrations of sample.
CMCs of mono-glycosylated betulin, di-glycosylated betulin, mono-(poly) ethoxylated-carbonated betulin and di-(poly) ethoxylated betulin were determined in water, respectively. Surface tensions of samples obtained in above examples were determined at different concentrations according to the stalagmometric method. […]
as §1, with “mono-hydrophilic” for “mono and di-hydrophilic”, “Samples were prepared at different concentration of mono and di-hydrophilic moiety derivatized betulin derivatives.” left out
CMCs of two mono-hydrophilic functionalized betulin at C28-hydroxy and C3-hydroxy group were determined in water, respectively. […]

Row | Substance | CMC [mM]
1 | di-(poly) ethoxylated betulin | 0.7
2 | mono-(poly) ethoxylated-carbonated betulin | 0.6
